# Measurements as given in PubChem BioAssay AID602142 (NMMLSC, 2011).
# This is a selection; strong and weak results do not stand in their true shares. Some of these compounds have results that are not shown, active ones among them. Active and inactive are the calls of the source. No rule for the calls is given here.
# Biological target: Lethal factor (Bacillus anthracis) (UniProt P15917)
# Assay: anthrax lethal factor cleavage blockers – biochemical, multiplex microsphere, cherry pick 1, confirmation (AID 602142)
# Settings: multiplex microsphere protease cleavage assay, LF; at 10 µM; hits give high values
smiles,measurement,value
CN1[C@@H]2CC[C@H]1CC(OC(=O)C(O)(c1ccccc1)c1ccccc1)C2 (stereo partly specified),inhibition,inactive: 6.1%
